# Key:
# By UniProt entry, the sequences of proteins in these tests, tags left out. Residues count along the entry.
# UniProt P42684, whole entry: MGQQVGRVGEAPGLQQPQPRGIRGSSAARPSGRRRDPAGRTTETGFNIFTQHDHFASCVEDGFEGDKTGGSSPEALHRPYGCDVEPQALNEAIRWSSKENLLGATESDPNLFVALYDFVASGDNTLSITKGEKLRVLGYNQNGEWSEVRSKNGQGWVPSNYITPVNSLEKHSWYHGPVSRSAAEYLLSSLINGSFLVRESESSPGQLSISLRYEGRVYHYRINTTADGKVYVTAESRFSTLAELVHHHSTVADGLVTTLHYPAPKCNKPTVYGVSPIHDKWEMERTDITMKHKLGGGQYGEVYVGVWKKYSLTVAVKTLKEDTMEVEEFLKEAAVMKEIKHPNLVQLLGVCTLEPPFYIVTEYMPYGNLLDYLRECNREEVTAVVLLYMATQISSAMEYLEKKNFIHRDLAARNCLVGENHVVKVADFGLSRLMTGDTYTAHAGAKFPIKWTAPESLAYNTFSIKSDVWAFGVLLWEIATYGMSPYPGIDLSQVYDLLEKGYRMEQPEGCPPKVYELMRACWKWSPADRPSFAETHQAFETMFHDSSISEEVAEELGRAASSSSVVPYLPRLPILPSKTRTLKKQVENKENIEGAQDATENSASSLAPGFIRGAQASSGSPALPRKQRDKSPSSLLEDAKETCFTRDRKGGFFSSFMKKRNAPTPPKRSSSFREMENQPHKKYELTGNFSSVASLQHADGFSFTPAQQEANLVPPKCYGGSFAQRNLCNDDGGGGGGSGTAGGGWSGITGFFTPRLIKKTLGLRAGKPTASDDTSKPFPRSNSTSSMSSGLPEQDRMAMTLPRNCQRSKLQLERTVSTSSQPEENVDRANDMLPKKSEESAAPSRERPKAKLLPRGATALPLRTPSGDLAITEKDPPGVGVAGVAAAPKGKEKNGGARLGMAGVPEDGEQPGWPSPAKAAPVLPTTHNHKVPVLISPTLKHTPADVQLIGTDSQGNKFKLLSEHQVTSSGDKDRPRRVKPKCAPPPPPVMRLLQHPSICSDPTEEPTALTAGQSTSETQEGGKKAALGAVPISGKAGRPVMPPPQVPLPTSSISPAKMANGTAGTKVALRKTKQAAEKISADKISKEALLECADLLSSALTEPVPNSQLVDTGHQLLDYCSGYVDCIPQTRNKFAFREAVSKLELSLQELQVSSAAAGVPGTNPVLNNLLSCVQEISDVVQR
# UniProt P16591, whole entry: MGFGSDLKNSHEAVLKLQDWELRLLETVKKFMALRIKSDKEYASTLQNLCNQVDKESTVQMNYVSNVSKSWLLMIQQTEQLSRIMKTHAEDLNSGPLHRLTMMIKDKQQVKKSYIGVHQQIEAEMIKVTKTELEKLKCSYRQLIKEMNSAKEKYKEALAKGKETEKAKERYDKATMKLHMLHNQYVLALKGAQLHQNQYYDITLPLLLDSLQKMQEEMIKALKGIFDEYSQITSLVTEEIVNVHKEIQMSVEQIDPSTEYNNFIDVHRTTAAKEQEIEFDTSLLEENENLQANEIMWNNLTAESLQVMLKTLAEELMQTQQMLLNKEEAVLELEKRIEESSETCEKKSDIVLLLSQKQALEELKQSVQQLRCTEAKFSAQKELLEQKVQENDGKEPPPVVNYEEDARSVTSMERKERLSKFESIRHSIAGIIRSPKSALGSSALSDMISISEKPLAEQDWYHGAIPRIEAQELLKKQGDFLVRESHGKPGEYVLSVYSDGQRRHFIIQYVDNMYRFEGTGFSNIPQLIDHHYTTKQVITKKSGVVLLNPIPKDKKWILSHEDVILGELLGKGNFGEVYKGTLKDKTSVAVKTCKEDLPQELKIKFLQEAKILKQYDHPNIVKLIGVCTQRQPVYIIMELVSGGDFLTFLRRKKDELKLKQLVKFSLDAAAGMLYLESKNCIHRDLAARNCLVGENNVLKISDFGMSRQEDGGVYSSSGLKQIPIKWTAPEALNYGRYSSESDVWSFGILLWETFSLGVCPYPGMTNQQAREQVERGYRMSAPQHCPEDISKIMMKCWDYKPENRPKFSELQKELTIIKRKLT
# UniProt Q9NRM7, whole entry: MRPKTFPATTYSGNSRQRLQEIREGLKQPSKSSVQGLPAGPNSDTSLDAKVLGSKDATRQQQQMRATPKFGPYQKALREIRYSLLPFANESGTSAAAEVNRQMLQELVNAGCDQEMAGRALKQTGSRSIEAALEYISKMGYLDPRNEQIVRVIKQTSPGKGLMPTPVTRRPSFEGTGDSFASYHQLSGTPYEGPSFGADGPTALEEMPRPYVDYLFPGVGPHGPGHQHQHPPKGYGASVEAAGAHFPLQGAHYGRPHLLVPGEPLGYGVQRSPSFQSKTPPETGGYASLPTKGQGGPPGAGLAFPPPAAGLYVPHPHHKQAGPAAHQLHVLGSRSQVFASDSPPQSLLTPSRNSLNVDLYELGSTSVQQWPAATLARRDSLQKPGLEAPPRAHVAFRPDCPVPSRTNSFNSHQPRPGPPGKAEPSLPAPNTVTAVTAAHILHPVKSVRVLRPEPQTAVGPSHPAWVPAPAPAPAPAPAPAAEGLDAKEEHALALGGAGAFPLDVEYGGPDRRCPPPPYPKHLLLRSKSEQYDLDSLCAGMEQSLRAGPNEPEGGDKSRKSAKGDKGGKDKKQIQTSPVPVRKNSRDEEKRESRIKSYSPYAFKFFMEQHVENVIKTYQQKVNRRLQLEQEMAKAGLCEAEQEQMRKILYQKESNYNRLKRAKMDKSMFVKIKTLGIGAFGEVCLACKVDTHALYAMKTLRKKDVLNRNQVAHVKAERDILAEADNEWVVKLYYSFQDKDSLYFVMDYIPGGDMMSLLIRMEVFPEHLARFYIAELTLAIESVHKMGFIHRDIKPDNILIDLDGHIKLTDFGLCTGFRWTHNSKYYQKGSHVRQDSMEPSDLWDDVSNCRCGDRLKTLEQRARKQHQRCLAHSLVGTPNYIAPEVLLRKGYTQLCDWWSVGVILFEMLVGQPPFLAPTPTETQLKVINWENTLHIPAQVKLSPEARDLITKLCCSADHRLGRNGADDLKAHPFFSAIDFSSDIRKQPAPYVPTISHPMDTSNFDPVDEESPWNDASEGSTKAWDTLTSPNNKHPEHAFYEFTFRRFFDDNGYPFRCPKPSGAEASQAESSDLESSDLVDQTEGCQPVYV
# UniProt Q9UL54, whole entry: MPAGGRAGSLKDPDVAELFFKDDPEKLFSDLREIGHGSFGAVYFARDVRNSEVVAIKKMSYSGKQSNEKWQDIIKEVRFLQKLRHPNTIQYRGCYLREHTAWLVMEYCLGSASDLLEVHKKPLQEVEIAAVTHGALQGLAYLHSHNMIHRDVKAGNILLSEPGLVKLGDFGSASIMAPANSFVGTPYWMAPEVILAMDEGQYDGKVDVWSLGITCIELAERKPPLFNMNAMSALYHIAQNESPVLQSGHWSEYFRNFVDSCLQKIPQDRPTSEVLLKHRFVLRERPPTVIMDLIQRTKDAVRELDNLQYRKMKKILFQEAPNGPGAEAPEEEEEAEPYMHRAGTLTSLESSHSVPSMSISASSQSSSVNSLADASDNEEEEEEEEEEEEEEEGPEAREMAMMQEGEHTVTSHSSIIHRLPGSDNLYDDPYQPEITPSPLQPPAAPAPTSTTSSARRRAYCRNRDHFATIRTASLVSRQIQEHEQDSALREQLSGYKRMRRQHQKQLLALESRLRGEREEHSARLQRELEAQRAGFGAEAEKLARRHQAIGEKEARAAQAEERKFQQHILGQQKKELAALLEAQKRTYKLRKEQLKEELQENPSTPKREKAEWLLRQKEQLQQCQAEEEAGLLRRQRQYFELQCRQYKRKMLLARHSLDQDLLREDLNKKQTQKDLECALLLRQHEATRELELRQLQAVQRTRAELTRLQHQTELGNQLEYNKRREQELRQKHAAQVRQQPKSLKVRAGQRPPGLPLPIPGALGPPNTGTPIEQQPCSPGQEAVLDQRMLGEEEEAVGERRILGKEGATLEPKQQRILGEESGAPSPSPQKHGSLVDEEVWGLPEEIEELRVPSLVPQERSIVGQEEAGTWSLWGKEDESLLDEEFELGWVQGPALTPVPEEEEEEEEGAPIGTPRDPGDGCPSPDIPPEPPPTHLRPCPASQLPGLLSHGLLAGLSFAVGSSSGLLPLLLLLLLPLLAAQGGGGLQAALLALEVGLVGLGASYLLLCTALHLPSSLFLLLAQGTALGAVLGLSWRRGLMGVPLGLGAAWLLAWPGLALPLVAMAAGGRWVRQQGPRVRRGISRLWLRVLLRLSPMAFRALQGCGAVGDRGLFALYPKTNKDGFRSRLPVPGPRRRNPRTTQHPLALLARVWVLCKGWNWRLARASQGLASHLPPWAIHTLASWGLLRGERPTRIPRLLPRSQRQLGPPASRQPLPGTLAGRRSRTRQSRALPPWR
# UniProt P10398, whole entry: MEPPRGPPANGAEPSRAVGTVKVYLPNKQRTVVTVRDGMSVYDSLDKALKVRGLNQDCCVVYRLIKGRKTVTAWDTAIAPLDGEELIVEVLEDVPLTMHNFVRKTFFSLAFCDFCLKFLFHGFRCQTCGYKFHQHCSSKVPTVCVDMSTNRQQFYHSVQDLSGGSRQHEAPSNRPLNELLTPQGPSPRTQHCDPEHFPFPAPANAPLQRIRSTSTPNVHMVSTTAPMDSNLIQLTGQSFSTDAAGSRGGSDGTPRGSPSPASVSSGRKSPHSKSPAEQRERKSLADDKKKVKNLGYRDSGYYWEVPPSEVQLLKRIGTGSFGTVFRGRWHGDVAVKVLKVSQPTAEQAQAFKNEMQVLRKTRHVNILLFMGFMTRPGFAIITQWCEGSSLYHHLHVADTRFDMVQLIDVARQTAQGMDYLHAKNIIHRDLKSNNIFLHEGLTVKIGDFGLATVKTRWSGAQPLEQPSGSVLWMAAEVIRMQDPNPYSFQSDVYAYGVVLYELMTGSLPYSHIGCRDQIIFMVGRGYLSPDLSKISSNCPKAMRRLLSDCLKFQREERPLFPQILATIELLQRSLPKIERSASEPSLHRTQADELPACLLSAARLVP
# UniProt P16234, 24-1089 limits assumed: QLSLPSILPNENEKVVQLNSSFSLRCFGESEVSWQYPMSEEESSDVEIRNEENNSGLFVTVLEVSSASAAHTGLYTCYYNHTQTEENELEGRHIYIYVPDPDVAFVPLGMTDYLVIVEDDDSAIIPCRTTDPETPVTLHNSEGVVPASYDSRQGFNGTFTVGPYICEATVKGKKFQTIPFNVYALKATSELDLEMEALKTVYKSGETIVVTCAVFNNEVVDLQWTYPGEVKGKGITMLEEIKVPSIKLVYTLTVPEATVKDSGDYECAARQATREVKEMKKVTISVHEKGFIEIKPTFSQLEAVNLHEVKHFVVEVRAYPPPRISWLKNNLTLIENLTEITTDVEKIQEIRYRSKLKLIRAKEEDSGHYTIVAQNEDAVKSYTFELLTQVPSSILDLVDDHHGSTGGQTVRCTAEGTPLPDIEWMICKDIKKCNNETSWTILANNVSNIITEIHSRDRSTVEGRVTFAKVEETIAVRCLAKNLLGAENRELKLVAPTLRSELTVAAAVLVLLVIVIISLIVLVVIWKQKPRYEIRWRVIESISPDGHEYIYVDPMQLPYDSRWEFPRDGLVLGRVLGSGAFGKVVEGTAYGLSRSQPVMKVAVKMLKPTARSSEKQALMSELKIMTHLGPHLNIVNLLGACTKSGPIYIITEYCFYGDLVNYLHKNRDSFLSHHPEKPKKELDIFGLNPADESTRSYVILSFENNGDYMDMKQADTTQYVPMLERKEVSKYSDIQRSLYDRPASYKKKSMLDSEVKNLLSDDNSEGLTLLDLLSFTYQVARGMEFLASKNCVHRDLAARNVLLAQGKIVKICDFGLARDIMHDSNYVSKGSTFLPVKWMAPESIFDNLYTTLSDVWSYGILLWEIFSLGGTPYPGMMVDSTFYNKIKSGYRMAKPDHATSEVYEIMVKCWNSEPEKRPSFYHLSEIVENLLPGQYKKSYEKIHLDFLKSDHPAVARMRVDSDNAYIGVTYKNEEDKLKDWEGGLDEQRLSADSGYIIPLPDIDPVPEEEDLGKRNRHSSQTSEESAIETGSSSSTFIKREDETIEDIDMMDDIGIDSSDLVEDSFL
# UniProt Q96S53, whole entry: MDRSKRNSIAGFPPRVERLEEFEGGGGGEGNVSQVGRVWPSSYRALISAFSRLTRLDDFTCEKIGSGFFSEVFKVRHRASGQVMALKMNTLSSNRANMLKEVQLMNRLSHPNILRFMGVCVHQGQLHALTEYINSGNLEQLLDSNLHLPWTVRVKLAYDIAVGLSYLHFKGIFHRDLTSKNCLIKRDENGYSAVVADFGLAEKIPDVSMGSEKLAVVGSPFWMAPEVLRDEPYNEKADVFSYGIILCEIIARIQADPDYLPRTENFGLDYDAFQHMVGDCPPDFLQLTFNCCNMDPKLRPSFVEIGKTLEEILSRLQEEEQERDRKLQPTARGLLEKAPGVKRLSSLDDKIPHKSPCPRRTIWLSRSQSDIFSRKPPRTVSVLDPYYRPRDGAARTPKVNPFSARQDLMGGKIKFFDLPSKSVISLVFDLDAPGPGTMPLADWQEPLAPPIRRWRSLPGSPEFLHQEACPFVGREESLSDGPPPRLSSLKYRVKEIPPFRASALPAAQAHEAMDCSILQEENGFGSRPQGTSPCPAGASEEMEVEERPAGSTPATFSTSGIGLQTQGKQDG
# Assay in all cases: Full kinase panel inhibition by Example compounds 8 and 51 at 1 μM (Tables 11 to 14; kinase named in each table line)
# full kinase panel [1] = target: full kinase panel (Homo sapiens, UniProt P29320); conditions: EPHA3
# full kinase panel [2] = target: full kinase panel (Homo sapiens, UniProt P42684); conditions: ABL2/ARG
# full kinase panel [3] = target: full kinase panel (Homo sapiens, UniProt O94804); conditions: LOK/STK10
# full kinase panel [4] = target: full kinase panel (Homo sapiens, UniProt P07332); conditions: FES/FPS
# full kinase panel [5] = target: full kinase panel (Homo sapiens, UniProt Q08345); conditions: DDR1
# full kinase panel [6] = target: full kinase panel (Homo sapiens, UniProt O15146); conditions: MUSK
# full kinase panel [7] = target: full kinase panel (Homo sapiens, UniProt P42680); conditions: TEC
# full kinase panel [8] = target: full kinase panel (Homo sapiens, UniProt P12931); conditions: C-SRC
# full kinase panel [9] = target: full kinase panel (Homo sapiens, UniProt Q9H3Y6); conditions: SRMS
# full kinase panel [10] = target: full kinase panel (Homo sapiens, UniProt P15056); conditions: BRAF
# full kinase panel [11] = target: full kinase panel (Homo sapiens, UniProt Q56UN5); conditions: YSK4/MAP3K19
# full kinase panel [12] = target: full kinase panel (Homo sapiens, UniProt Q16539); conditions: P38A/MAPK14
# full kinase panel [13] = target: full kinase panel (Homo sapiens, UniProt Q99759); conditions: MEKK3
# full kinase panel [14] = target: full kinase panel (Homo sapiens, UniProt P16591); conditions: FER
# full kinase panel [15] = target: full kinase panel (Homo sapiens, UniProt P08631); conditions: HCK
# full kinase panel [16] = target: full kinase panel (Homo sapiens, UniProt Q92918); conditions: HPK1/MAP4K1
# full kinase panel [17] = target: full kinase panel (Homo sapiens, UniProt P06239); conditions: LCK
# full kinase panel [18] = target: full kinase panel (Homo sapiens, UniProt Q9NYL2); conditions: ZAK/MLTK
# full kinase panel [19] = target: full kinase panel (Homo sapiens, UniProt Q13163); conditions: MEK5
# full kinase panel [20] = target: full kinase panel (Homo sapiens, UniProt Q9H2G2); conditions: SLK/STK2
# full kinase panel [21] = target: full kinase panel (Homo sapiens, UniProt Q12851); conditions: GCK/MAP4K2
# full kinase panel [22] = target: full kinase panel (Homo sapiens, UniProt P07948); conditions: LYN
# full kinase panel [23] = target: full kinase panel (Homo sapiens, UniProt P42681); conditions: TXK
# full kinase panel [24] = target: full kinase panel (Homo sapiens, UniProt Q9NRM7); conditions: LATS2
# full kinase panel [25] = target: full kinase panel (Homo sapiens, UniProt P00533); conditions: EGFR
# full kinase panel [26] = target: full kinase panel (Homo sapiens, UniProt P57059); conditions: SIK1
# full kinase panel [27] = target: full kinase panel (Homo sapiens, UniProt P41240); conditions: CSK
# full kinase panel [28] = target: full kinase panel (Homo sapiens, UniProt P51813); conditions: BMX/ETK
# full kinase panel [29] = target: full kinase panel (Homo sapiens, UniProt Q9UL54); conditions: TAOK2/TAO1
# full kinase panel [30] = target: full kinase panel (Homo sapiens, UniProt Q9UKE5); conditions: TNIK
# full kinase panel [31] = target: full kinase panel (Homo sapiens, UniProt P09619); conditions: PDGFRB
# full kinase panel [32] = target: full kinase panel (Homo sapiens, UniProt P52333); conditions: JAK3
# full kinase panel [33] = target: full kinase panel (Homo sapiens, UniProt Q9NY57); conditions: STK32B/YANK2
# full kinase panel [34] = target: full kinase panel (Homo sapiens, UniProt Q16288); conditions: TRKC
# full kinase panel [35] = target: full kinase panel (Homo sapiens, UniProt P10398); conditions: ARAF
# full kinase panel [36] = target: full kinase panel (Homo sapiens, UniProt P16234); conditions: PDGFRA
# full kinase panel [37] = target: full kinase panel (Homo sapiens, UniProt P54756); conditions: EPHA5
# full kinase panel [38] = target: full kinase panel (Homo sapiens, UniProt P21802); conditions: FGFR2
# full kinase panel [39] = target: full kinase panel (Homo sapiens, UniProt Q8IVH8); conditions: GLK/MAP4K3
# full kinase panel [40] = target: full kinase panel (Homo sapiens, UniProt Q96S53); conditions: TESK2
smiles,measurement,setting,value
Cc1cn(-c2cc(C(=O)Nc3ccc(C)c(N4Cc5cnc(NC6CC6)nc5C5(CC5)C4=O)c3)cc(C(F)(F)F)c2)cn1,kinase inhibition (residual enzyme activity),full kinase panel [1],"◯ (residual enzyme activity values were 40% or less, i.e., inhibited by 60% or more)"
same,kinase inhibition (residual enzyme activity),full kinase panel [2],"◯ (residual enzyme activity values were 40% or less, i.e., inhibited by 60% or more)"
same,kinase inhibition (residual enzyme activity),full kinase panel [3],"◯ (residual enzyme activity values were 40% or less, i.e., inhibited by 60% or more)"
same,kinase inhibition (residual enzyme activity),full kinase panel [4],"◯ (residual enzyme activity values were 40% or less, i.e., inhibited by 60% or more)"
same,kinase inhibition (residual enzyme activity),full kinase panel [5],"◯ (residual enzyme activity values were 40% or less, i.e., inhibited by 60% or more)"
same,kinase inhibition (residual enzyme activity),full kinase panel [6],"◯ (residual enzyme activity values were 40% or less, i.e., inhibited by 60% or more)"
same,kinase inhibition (residual enzyme activity),full kinase panel [7],"◯ (residual enzyme activity values were 40% or less, i.e., inhibited by 60% or more)"
same,kinase inhibition (residual enzyme activity),full kinase panel [8],"◯ (residual enzyme activity values were 40% or less, i.e., inhibited by 60% or more)"
same,kinase inhibition (residual enzyme activity),full kinase panel [9],"◯ (residual enzyme activity values were 40% or less, i.e., inhibited by 60% or more)"
same,kinase inhibition (residual enzyme activity),full kinase panel [10],"◯ (residual enzyme activity values were 40% or less, i.e., inhibited by 60% or more)"
same,kinase inhibition (residual enzyme activity),full kinase panel [11],"◯ (residual enzyme activity values were 40% or less, i.e., inhibited by 60% or more)"
same,kinase inhibition (residual enzyme activity),full kinase panel [12],"◯ (residual enzyme activity values were 40% or less, i.e., inhibited by 60% or more)"
same,kinase inhibition (residual enzyme activity),full kinase panel [13],"◯ (residual enzyme activity values were 40% or less, i.e., inhibited by 60% or more)"
same,kinase inhibition (residual enzyme activity),full kinase panel [14],"◯ (residual enzyme activity values were 40% or less, i.e., inhibited by 60% or more)"
same,kinase inhibition (residual enzyme activity),full kinase panel [15],"◯ (residual enzyme activity values were 40% or less, i.e., inhibited by 60% or more)"
same,kinase inhibition (residual enzyme activity),full kinase panel [16],"◯ (residual enzyme activity values were 40% or less, i.e., inhibited by 60% or more)"
same,kinase inhibition (residual enzyme activity),full kinase panel [17],"◯ (residual enzyme activity values were 40% or less, i.e., inhibited by 60% or more)"
same,kinase inhibition (residual enzyme activity),full kinase panel [18],"◯ (residual enzyme activity values were 40% or less, i.e., inhibited by 60% or more)"
same,kinase inhibition (residual enzyme activity),full kinase panel [19],"◯ (residual enzyme activity values were 40% or less, i.e., inhibited by 60% or more)"
same,kinase inhibition (residual enzyme activity),full kinase panel [20],"◯ (residual enzyme activity values were 40% or less, i.e., inhibited by 60% or more)"
same,kinase inhibition (residual enzyme activity),full kinase panel [21],"◯ (residual enzyme activity values were 40% or less, i.e., inhibited by 60% or more)"
same,kinase inhibition (residual enzyme activity),full kinase panel [22],"◯ (residual enzyme activity values were 40% or less, i.e., inhibited by 60% or more)"
same,kinase inhibition (residual enzyme activity),full kinase panel [23],"◯ (residual enzyme activity values were 40% or less, i.e., inhibited by 60% or more)"
same,kinase inhibition (residual enzyme activity),full kinase panel [24],"◯ (residual enzyme activity values were 40% or less, i.e., inhibited by 60% or more)"
same,kinase inhibition (residual enzyme activity),full kinase panel [25],"◯ (residual enzyme activity values were 40% or less, i.e., inhibited by 60% or more)"
same,kinase inhibition (residual enzyme activity),full kinase panel [26],"◯ (residual enzyme activity values were 40% or less, i.e., inhibited by 60% or more)"
same,kinase inhibition (residual enzyme activity),full kinase panel [27],"◯ (residual enzyme activity values were 40% or less, i.e., inhibited by 60% or more)"
same,kinase inhibition (residual enzyme activity),full kinase panel [28],"◯ (residual enzyme activity values were 40% or less, i.e., inhibited by 60% or more)"
same,kinase inhibition (residual enzyme activity),full kinase panel [29],"◯ (residual enzyme activity values were 40% or less, i.e., inhibited by 60% or more)"
same,kinase inhibition (residual enzyme activity),full kinase panel [30],"◯ (residual enzyme activity values were 40% or less, i.e., inhibited by 60% or more)"
same,kinase inhibition (residual enzyme activity),full kinase panel [31],"◯ (residual enzyme activity values were 40% or less, i.e., inhibited by 60% or more)"
same,kinase inhibition (residual enzyme activity),full kinase panel [32],"◯ (residual enzyme activity values were 40% or less, i.e., inhibited by 60% or more)"
same,kinase inhibition (residual enzyme activity),full kinase panel [33],"◯ (residual enzyme activity values were 40% or less, i.e., inhibited by 60% or more)"
same,kinase inhibition (residual enzyme activity),full kinase panel [34],"◯ (residual enzyme activity values were 40% or less, i.e., inhibited by 60% or more)"
same,kinase inhibition (residual enzyme activity),full kinase panel [35],"◯ (residual enzyme activity values were 40% or less, i.e., inhibited by 60% or more)"
same,kinase inhibition (residual enzyme activity),full kinase panel [36],"◯ (residual enzyme activity values were 40% or less, i.e., inhibited by 60% or more)"
same,kinase inhibition (residual enzyme activity),full kinase panel [37],"◯ (residual enzyme activity values were 40% or less, i.e., inhibited by 60% or more)"
same,kinase inhibition (residual enzyme activity),full kinase panel [38],"◯ (residual enzyme activity values were 40% or less, i.e., inhibited by 60% or more)"
same,kinase inhibition (residual enzyme activity),full kinase panel [39],"◯ (residual enzyme activity values were 40% or less, i.e., inhibited by 60% or more)"
same,kinase inhibition (residual enzyme activity),full kinase panel [40],"◯ (residual enzyme activity values were 40% or less, i.e., inhibited by 60% or more)"

# From patent US20260382623A1, “NOVEL COMPOUND FOR INHIBITING PROTEIN KINASES AND PHARMACEUTICAL COMPOSITION COMPRISING SAME” (published 2026)
